Data from patent US10093635B2, “MAGL inhibitors” (ABIDE THERAPEUTICS, INC., priority 2016, dated 2018).

By UniProt entry, the sequences of proteins in these tests, tags left out.
UniProt O35678, whole entry: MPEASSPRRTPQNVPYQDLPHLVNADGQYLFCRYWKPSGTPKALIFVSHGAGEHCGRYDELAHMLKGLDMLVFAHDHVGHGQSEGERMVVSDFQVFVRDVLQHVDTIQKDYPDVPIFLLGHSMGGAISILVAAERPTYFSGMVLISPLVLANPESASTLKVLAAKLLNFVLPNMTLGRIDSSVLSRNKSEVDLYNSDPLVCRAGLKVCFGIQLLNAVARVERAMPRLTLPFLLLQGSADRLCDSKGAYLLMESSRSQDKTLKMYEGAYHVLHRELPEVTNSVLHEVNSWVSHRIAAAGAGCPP

Target: MGLL (Mus musculus (Mouse), UniProt O35678)
Test: in vivo
Details: po, read-out: MGLL % Inhibition at 5 mg/kg (Mouse)

Q: `CS(=O)(=O)N(CCNc1cc(Cl)ccc1CN1CCN(C(=O)OC(C(F)(F)F)C(F)(F)F)CC1)CC(=O)O` [Example 12, N-(2-((5-Chloro-2-((4-(((1,1,1,3,3,3-hexafluoropropan-2-yl)oxy)carbonyl)piperazin-1-yl)methyl)phenyl)amino)ethyl)-N-(methylsulfonyl)glycine] was tested. Which inhibition at 5 mg/kg did it give?
A: 25 to 75%
